Test results from patent US20060093578A1, “Method and composition for treating multiple sclerosis” (Kyorin Pharmaceutical Co., Ltd., priority 2004, published 2006).

Columns and labels:
Type in all cases: cell-based, C57BL/6J mice
microglia [1] = assay: NO production by microglia (Griess reaction); details: non-stimulated or LPS-stimulated microglia (FIG. 2D)
Method: Samples used for the experiments were prepared as described below. Microglia were isolated from the primary mixed glial cell cultures from newborn C57BL/6J mice on the 14th day, by the “shaking off” method previously described (Suzumura A, Mezitis S G E, Gonatas N, Silberberg D H. “MHC antigen expression on bulk isolated macrophage-microglia from newborn mouse brain: induction of Ia antigen expression by gamma-interferon.” J Neuroimmunol 1987;15:263-278, the contents of which are hereby incorporated by reference in their entirety); the purity of the cultures was 97% to 100% as determined by immunostaining for the Fc receptor. […]
The effects of IFNβ on cytokines and NO production were evaluated in the flooding manner. […] The supernatant was then collected and stored at −70° C. until assessed. […]
Cytokine production was measured with an ELISA kit specific for IL1, IL-6, TNFα, and IL-12 p70 (TECHNE Corp. MN). NO production was determined by Griess reaction. Briefly, a 50 μl aliquot of supernatants were mixed with an equal volume of Griess reagent (0.1% N-ethylenediarnine dihydrochloride, 1% sulfanilamide, and 2.5% phosphoric acid) and incubated for 15 minutes at room temperature, and the absorbance was read at 540 nm on a microtiter plate reader. […]

peritoneal macrophages = assay: Production of inflammatory mediators by peritoneal macrophages (ELISA, Griess)
Method: Peritoneal macrophages were collected from the same strain of mice that were intraperitoneally injected with thioglycolate 48 hours prior to collection. Macrophages were cultured with the same medium as microglia.
(§1) The effects of IFNβ on cytokines and NO production were evaluated in the flooding manner. Microglia and peritoneal macrophages were cultured in 24-well culture plates at a concentration of 1×10^6/ml with or without 1 μg/ml LPS (lipopolysaccharide) for 24 hours in the presence of a graded concentration of IFNβ. The supernatant was then collected and stored at −70° C. until assessed. From the remaining cells, total RNA was extracted, following the guanidinium thiocyanate method (RNeasy Mini Kit;QIAGEN). The cDNA encoding mouse TNFα, IL-1β, IL-6, iNOS (inducible nitric oxide synthetase), and IL-12, was generated by reverse transcription-polymerase chain reaction (RT-PCR) using Superscript II (INVITROGEN), and Ampli Taq DNA polymerase (APPLIED BIOSYSTEMS) with the specific primers shown in Table 1.
(§2) Cytokine production was measured with an ELISA kit specific for IL1, IL-6, TNFα, and IL-12 p70 (TECHNE Corp. MN). NO production was determined by Griess reaction. Briefly, a 50 μl aliquot of supernatants were mixed with an equal volume of Griess reagent (0.1% N-ethylenediarnine dihydrochloride, 1% sulfanilamide, and 2.5% phosphoric acid) and incubated for 15 minutes at room temperature, and the absorbance was read at 540 nm on a microtiter plate reader. Nitrite concentrations were calculated from a standard curve of NaNO2 (Yoshikawa M, Suzumura A, Tamaru T, et al. “Effects of phosphodiesterase inhibitors on microglia.” Multiple Scler 1999;5: 126-133, the contents of which are hereby incorporated by reference in their entirety).

microglia [2] = assay: Cytokine production (TNFα, IL-1β, IL-6, IL-10) by microglia (ELISA)
Method: (§3) Samples used for the experiments were prepared as described below. Microglia were isolated from the primary mixed glial cell cultures from newborn C57BL/6J mice on the 14th day, by the “shaking off” method previously described (Suzumura A, Mezitis S G E, Gonatas N, Silberberg D H. “MHC antigen expression on bulk isolated macrophage-microglia from newborn mouse brain: induction of Ia antigen expression by gamma-interferon.” J Neuroimmunol 1987;15:263-278, the contents of which are hereby incorporated by reference in their entirety); the purity of the cultures was 97% to 100% as determined by immunostaining for the Fc receptor. The cultures were maintained with Dulbecco's modified Eagle's minimum essential medium supplemented with 10% fetal calf serum, 5 μg/ml bovine insulin, and 0.2% glucose.
The effects of IFNβ on cytokines and NO production were evaluated in the flooding manner. Microglia and peritoneal macrophages were cultured in 24-well culture plates at a concentration of 1×10^6/ml with or without 1 μg/ml LPS (lipopolysaccharide) for 24 hours in the presence of a graded concentration of IFNβ. The supernatant was then collected and stored at −70° C. until assessed. From the remaining cells, total RNA was extracted, following the guanidinium thiocyanate method (RNeasy Mini Kit;QIAGEN). […]
as §2
In order to evaluate candidate agents that protect against IFNβ-induced elevation of inflammatory products, the effects of cAMP-elevating agents were investigated. In particular, the phosphodiesterase inhibitor (PDEI) ibudilast was evaluated by culturing microglia at a concentration of 1×10^6/ml in 24-well culture plates with 10^4 U/ml IFNβ and/or 1 μg/ml LPS, in the presence of 1-100 μM ibudilast for 24 hours. Supernatants were then collected and assessed for the cytokine contents by ELISA and for NO by Griess method. […]

[3] = system: MOG 35-55-specific T cells; assay: Cytokine production / Th1 differentiation of MOG 35-55-specific T cells with microglia as antigen presenting cells (ELISA)
Method: To assess the effects on Th1 differentiation, the following techniques were employed. Myelin oligodendrocyte glycoprotein (MOG) 35-55-specific T cells were prepared from C57BL/6J mice immunized with 200 μg/head of MOG 35-55 (kindly provided by Dr. H. Offner, Oregon Health and Science University, Portland, Oreg.) in Freund's complete adjuvant containing 300 μg/head Mycobacterium tuberculosis H37RA (DIFCO Lab., Detroit, Mich.). Ten days later, lymph node cells were harvested, and 8×10^6 cells were cultured with 20 μg/ml MOG 35-55 for 48 hours. After expanded in the presence of IL-2 for 7 days, MOG 35-55-specific T cells were used for following experiments. Microglia treated with 1 ng/ml IFNγ for 24 hr in the presence of a graded dose of IFNβ (0-10^4 U/ml) were used as antigen presenting cells after washed 3 times with PBS. Also, 1×10^6/ml MOG 35-55specific T cells were cultured on the above-treated microglia with or without 20 μg/ml MOG 35-55. Supernatants were collected at 48 hours and assessed for the contents of IFNγ, IL-4 and IL-10 by ELISA kits (BD BIOSCIENCES, San Diego, Calif.).

microglia [4] = assay: mRNA expression of class II MHC antigen and costimulatory molecules in IFNγ-treated microglia (RT-PCR)
Method: as §3
The effects of IFNβ on mRNA expression of class II MHC antigens and costimulatory molecules were evaluated in the following manner. Microglia at a concentration of 1×10^6 /ml were plated on a well of a 24 well plate and stimulated with 1 ng/ml INFγ in the presence of a graded dose of IFNβ for 24 hours, then the cells were harvested to extract RNA as described hereinabove. The mRNA expression for class II MHC antigen, B7-1, B7-2, and ICAM-1 were examined by RT-PCR, with the specific primers as recited in Table 1 above.

microglia [5] = assay: mRNA expression of inflammatory mediators and IL-12 p35/p40 in microglia (RT-PCR)
Method: as §3, §1

[6] = system: IL-12 p70 production by microglia; assay: IL-12 p70 production by LPS + IFNγ-stimulated microglia (ELISA); details: for IL-12 p70: microglia + LPS (1 μg/mL) + IFNγ (1 ng/mL), mean ± SD (n = 9)
Method: as §3, §1, §2
In addition, the direct effects of PDEIs on microglia were investigated in the absence of IFNβ. As shown previously, microglia produced IL-12 p70 upon response to LPS and IFNγ stimulation (Suzumura A, Mezitis S G E, Gonatas N, Silberberg D H. “MHC antigen expression on bulk isolated macrophage-microglia from newborn mouse brain: induction of Ia antigen expression by gamma-interferon.” J Neuroimmunol 1987;15:263-278). […]

[7] = LPS-stimulated macrophages (FIG. 7A-7D)
[8] = LPS-stimulated, ELISA (FIG. 2A-2C)
[9] = IFNβ added with IFNγ to microglia used as APC (FIG. 6B, 6D)
[10] = IFNβ added with IFNγ to microglia used as APC, MOG 35-55 (FIG. 6A, 6C)
[11] = IFNγ-treated microglia (FIG. 5)
[12] = LPS-stimulated microglia, dose-dependent (FIG. 3A)

Substance: Interferon-β [IFNβ]
- production of NO (microglia [1]): increased
- IL-1β production (peritoneal macrophages; [7]): dose-dependently increased
- IL-6 production (peritoneal macrophages; [7]): dose-dependently increased
- NO production (peritoneal macrophages; [7]): dose-dependently increased
- TNFα production (peritoneal macrophages; [7]): dose-dependently increased
- NO production (peritoneal macrophages; unstimulated macrophages (FIG. 7D)): dose-dependently increased
- release of IL-1β from microglia (microglia [2]; [8]): dose-dependently increased
- release of IL-6 from microglia (microglia [2]; [8]): dose-dependently increased
- release of TNFα from microglia (microglia [2]; [8]): dose-dependently increased
- production of anti-inflammatory cytokine IL-10 (microglia [2]; microglia, ELISA for secreted protein and RT-PCR for mRNA (FIG. 4)): dose-dependently increased
- changes of production of IL-4 by MOG-specific T cells [3, 9]: mild
- changes of production of IL-10 by MOG-specific T cells [3, 9]: mild
- IFNγ produced by MOG-specific T cells [3, 10]: decrease
- IL-2 produced by MOG-specific T cells [3, 10]: decrease
- differentiation of MOG 35-55-specific T cells into Th1 phenotype ([3]; MOG 35-55 presented by microglia): significantly suppressed; also recorded: did not directly block
- effects on cytokine production by MOG-specific T cells ([3]; MOG 35-55 presented by microglia (FIG. 11)): not remarkable
- class II MHC mRNA expression induced by IFNγ (microglia [4]; IFNβ at 10^4 and 10^3 U/ml (FIG. 5)): suppressed
- expression of B7-1 (microglia [4]; [11]): slightly suppressed
- mRNA expression for B7-2 (microglia [4]; [11]): no significant effect
- mRNA expression for ICAM-1 (microglia [4]; [11]): no significant effect
- expression of p35 and p40 mRNA (microglia [5]; LPS and IFNγ-treated microglia (FIG. 1, FIG. 10)): dose-dependently suppressed
- mRNA expression for IL-1β (microglia [5]; LPS-stimulated microglia, changes were mild (FIG. 3A)): up-regulated
- mRNA expression for IL-6 (microglia [5]; [12]): up-regulated
- mRNA expression for TNFα (microglia [5]; [12]): up-regulated
- mRNA expression for iNOS (microglia [5]; [12]): up-regulated
- expression of TNFα (microglia [5]; non-stimulated microglia (FIG. 3B)): enhanced
- IL-12 production by microglia ([6]; LPS and IFNγ stimulation, graded doses (FIG. 1, FIG. 9A)): dose-dependently suppressed
- IL-12 p70 ([6]; IFNβ 10^2 U/mL): 78 ± 18 pg/mL
- IL-12 p70 ([6]; IFNβ 10^3 U/mL): 21 ± 12 pg/mL
- IL-12 p70 ([6]; IFNβ 10^4 U/mL): 23 ± 4 pg/mL

Entries after “also recorded” stand apart in the source; their conditions may differ.
